The values below are quoted from earlier work in US20050090520A1, “Treatment of disease or injury of the nervous system with FTY720” (priority 2003, published 2005).

The chains behind the UniProt entries cited, without tags or fusion partners.
UniProt P21453, whole entry, species assumed: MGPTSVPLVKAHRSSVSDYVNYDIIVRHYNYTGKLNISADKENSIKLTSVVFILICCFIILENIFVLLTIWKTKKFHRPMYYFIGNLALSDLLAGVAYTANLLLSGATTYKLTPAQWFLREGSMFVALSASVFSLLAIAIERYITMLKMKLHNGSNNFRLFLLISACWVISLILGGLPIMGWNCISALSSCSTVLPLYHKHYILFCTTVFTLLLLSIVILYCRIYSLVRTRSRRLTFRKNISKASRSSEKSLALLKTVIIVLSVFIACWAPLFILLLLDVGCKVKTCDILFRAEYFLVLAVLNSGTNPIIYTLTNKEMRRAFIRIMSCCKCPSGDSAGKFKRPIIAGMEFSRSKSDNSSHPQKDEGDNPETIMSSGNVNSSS

Broadly, the IC50 is the concentration that inhibits the measured activity by half.

The series addresses S1P1 (Homo sapiens, UniProt P21453). As to conditions: Mandala et al., 2002; CHO cell membranes; read-out: Binding (IC50) S1P1; cited from earlier work.

`CCCCCCCCc1ccc(CCC(N)(CO)CO)cc1` [FTY720, 2-amino-2-[2-(4-octylphenyl)ethyl]-1,3-propanediol]: the IC50 was 300 nM.
